Laboratory results: paper PMC10683372 (Protein Science : A Publication of the Protein Society, 2023)

Biological target: T1, α‐thrombin (αT) (Homo sapiens, UniProt P00734)
T1 construct: goes from Thr1 of the A-chain to Glu295 of the B-chain
Experiment: Tight-binding inhibition of αT amidolytic activity on chromogenic substrate S2238
Format: biochemical

In the case of CCCC[C@H](NC(=O)CNC(=O)[C@H](Cc1cccc2ccccc12)NC(=O)[C@H](CCCNC(=N)N)NC(=O)[C@@H](N)[C@@H](C)CC)C(=O)NCC(=O)N[C@@H](CCCCN)C(=O)N[C@H](C(=O)N1CCC[C@H]1C(=O)NCC(=O)O)C(C)C [Phe3αNal], the Ki is reported as 2.3 ± 0.1 µM.
